Assay [1] concerns mouse cumulus enclosed oocytes (CEO). Description: IVF fertilisation of cumulus enclosed oocytes after IVM with a statin. The class given is cell-based. Conditions: vs control oocytes. Here is the method:
Mouse oocytes were isolated and cultured according to descriptions in example 3 but for a single deviation in that the IVM culture medium was further supplemented with 1 mg/mL Fetuin (Sigma F-3385, Sigma, U.S.A.). The CEOs were divided into three groups and cultured in dishes containing medium added either 1% (v/v) ethanol (control), recombinant human follicular stimulating hormone (Gonal-F, Serono, DK) at a concentration of 7.5 IU/L together with 1% (v/v) ethanol (FSH), or 10 μM Compactin (Mevinolin M2147, Sigma-Aldrich, Denmark) with 1% (v/v) ethanol (Mevinolin). The ethanol was necessary in order to dissolve Mevinolin in the medium. […] The resulting pool of motile sperm was counted in a counting chamber and 50000 motile sperm cells was added each oocyte culture. […] These oocytes were left for another 48 hours and subsequently counted according to the maturational status of the oocyte or the progression of the fertilised zygote, i.e. GV-oocytes, GVBD-oocytes, PB-oocytes, PB^2-oocytes (oocytes with a visible second polar body), 2-cells, 3-4-cells, 4+ cells (zygotes with more than 4 blastomeres) and degenerated cells (usually granulated or cells with extensive plasma-membrane ondulation).

For assay [2], the system named is de novo cholesterol biosynthesis. Description: Radio-tracing of 3H from acetic acid into free cholesterol in COC cultures. Type of assay: cell-based, mouse. As to conditions: pooled COC cultures. Here is the method:
DPM on the ordinate axis indicate the radioactivity measured by the scintillation detector after correction for counting efficiency and purification efficiencyby the HPLC method. N denotes the total number of COCs extracted for cholesterol isolation by HPLC.
Prepubertal C57 black×DBA 2 F1 female mice (M&B A/S, Ry, Denmark) were stimulated to super-ovulation (11 a.m. at day 0) by i.p. injections of 12 IU Menogon® (Ferring, Denmark) in 200 μL H2O as in examples 1 and 2. Oocytes from preovulatory follicles were retrieved from the ovaries 46 hours after by puncturing the pre-ovulatory follicles of the ovaries with 0.20 mm needles when ovaries were immersed in a culture medium (α-MEM 22571-020, Gibco BRL, Scotland) supplemented with 4 mM hypoxanthine (see below). […] The statin Compactin (Sigma, Sigma-Aldrich, Denmark,) was added in 50 mM in DMSO (final concentration of DMSO in cultures were 1% v/v in all set-ups including controls) and recombinant human follicular stimulating hormone (Gonal-F, Serono, DK) was added to a final concentration of 7.5 IU/L. After 22 hours of culture oocytes were scored for the presence of germinal vesicles (GV), germinal vesicle breakdown (GVB) and presence of polar bodies (PB). […]

The test system of assay [3] is mouse ovaries. Briefly: Incubation in vitro of mouse ovaries with 3H-acetic acid, scintillation of HPLC-separated analytes. The class given is cell-based. Here is the method: Prepubertal C57 black×DBA 2 F1 female mice (M&B A/S, Ry, Denmark) were stimulated to super-ovulation (day 0) by i.p. injections of 12 IU Menogon® (Ferring, Vanløse, Denmark) in 200 μL H2O as in examples 1-4. Ovaries were isolated 46 hours after as in example 4 and cultured in toto in α-MEM (Gibco BRL, Scotland) in presence of 0.25 mCi ^3H-acetic acid (NEN, U.S.A.). Cultures were added 0 (control) or 5 IU/ml hCG and 0 (control) or 20% FCS in combinations. 2 ovaries were incubated together in 1.0 ml medium. 22 hours after, cultures were stopped, ovaries rinsed and extracted as explained in example 3. The extracted sterols were separated by HPLC Column: ChromSpherSi 250×4.6 mm, 5 μm; mobile phase: 99.65% n-heptane (Fisher, Leicester, U.K.): 0.35% isopropanol (Baker, Deventer, NL) (vol.:vol.)), regeneration; 90% n-heptane: 10% isopropanol. Prior to straight phase sample analysis three consecutive runs of a standard mixture containing squalene, 4,4-dimethylsterols, 7-dehydrocholesterol, desmosterol, cholesterol and P4 were performed in order to tabulate time windows for collection. Window 1 (2′50″-4′00″) containing squalene, window 2 (10′30″-14′00″) containing 4,4-dimethylsterols, window 3 (25′00″-29′00″) containing cholesterol and desmosterol, window 4 (29′30″-33′00″) containing 5,7-enes and window 5 (containing P4) were collected, dried and subjected to reversed phase: LiChrospher RP-8, 5 μm, 250×4.6 mm HPLC column running in (v/v) 92.5% acetonitrile: 7.5% water at 1.00 ml/min, 40° C. Analytes were identified by UV light absorption between 200-300 nm. Squalene (Merck S21362), lanosterol (Sigma L5768), zymosterol (Steraloids C3200), lathosterol (Steraloids C7400), 7-dehydrocholesterol (Steraloids C3000), desmosterol (Steraloids C3150), cholesterol (Steraloids C6760) and P4 (Sigma P-0130) were obtained commercially, whereas FF-MAS and T-MAS standards were produced in the laboratory. All the below ranked analytes eluted as single homogeneous single peaks on the reversed phase separation. Peaks were collected, mixed with 3.0 ml scintillation fluid (Packard, NL) in scintillation vials. Countings were performed in a Beckman LS 1801 liquid scintillation counter. CPM values were corrected for counting efficiency and sample injection: […]

Assay [4] concerns gonadotrophin primed prepubertal mouse ovaries. Briefly: Free cholesterol, FF-MAS and progesterone in ovaries of gonadotrophin primed prepubertal mice (HPLC). The class given is in vivo. As to conditions: ovary, 6 h after hCG. Here is the method:
The other half (control mice) were injected a similar volume of PBS. […] Ovaries were isolated pair-wise, weighed, freeze-dried, weighed again and subsequently extracted in 1.0 ml (v/v) 75% n-heptane: 25% isopropanol. The organic extract was re-constituted in mobilphase for HPLC straight-phase (SP) separation (ChromSpherSi, 5 μm, 250×4.6 mm HPLC column, running in (v/v) 99.5% n-heptane (Fischer, Leicestershire, U.K.): 0.5% isopropanol (Baker, NL) at 1.00 ml/min.). Eluted material was detected by ultraviolet light absorption between 200-300 nm. Prior to the HPLC analysis a standard mixture containing cholesterol, FF-MAS and progesterone (P4) was run three times in order to confirm the stability of response factors for standards. Standards for cholesterol (Steraloids […]) and P4 (Sigma P-0130) were obtained commercially whereas the FF-MAS standards used was produced in the laboratory as described before (Baltsen et al., 1999). All standard curves were linear in the range of all sample values.

The values that follow come from patent US20050132430A1, “Igamete recruitment and developmental competence in mammals by inhibiting the de-nova sterol biosynthesis and/or promoting sterol efflux” (priority 2001, published 2005).

For the substance “FSH: recombinant human follicular stimulating hormone (Gonal-F, Serono)”, the “cumulus expansion after the IVM culture period” value in assay [1] is reported as “intermediate”. The “inhibition of cholesterol de novo biosynthesis (3H from acetic acid in free cholesterol)” value in assay [2] was “less effective”.

On to “hCG: human chorion gonadotrophin (Ferring), ovulatory trigger”, for which, in assay [3] (5 IU/ml hCG, 22 hours), the “Control/hCG scintillation ratio, 5,7-ene” value stood at 35 ± 4%; the “Control/hCG scintillation ratio, Cholesterol” value worked out at 226 ± 39%; the “Control/hCG scintillation ratio, Desmosterol” value is 58 ± 7%; the “Control/hCG scintillation ratio, FF-MAS” value worked out at 72 ± 16%. Also, in assay [3] (5 IU/ml hCG, 22 hours), the “Control/hCG scintillation ratio, Lanosterol” value is recorded as 22 ± 7%; the “Control/hCG scintillation ratio, Progesterone” value was 13 ± 5%; the “Control/hCG scintillation ratio, Squalene” value was 80 ± 9%; the “Control/hCG scintillation ratio, T-MAS” value was 43 ± 50%. Moreover, the “de novo biosynthesis of cholesterol in mouse ovaries” value in assay [3] (following hCG treatment) is recorded as “decreases”. For the same substance, in assay [4], the FF-MAS is 3.0 ± 0.5 B μg/g wet w and the “P4 (progesterone)” value amounted to 13.0 ± 0.5 A μg/g wet w.
